Calls of active or inactive are those of the source. The rule behind the calls is not given here.
Key:
[1] = biological target: Retinoic acid receptor gamma (Homo sapiens) (UniProt P13631); assay: Agonist activity at NR1B3 (unknown origin) at 1 uM
[2] = biological target: Retinoic acid receptor gamma (Homo sapiens) (UniProt P13631); assay: Inverse agonist activity at NR1B3 (unknown origin) at 1 uM
[3] = biological target: Oxysterols receptor LXR-beta (Homo sapiens) (UniProt P55055); assay: Inverse agonist activity at NR1H2 (unknown origin) at 1 uM
[4] = biological target: T1, Nuclear receptor ROR-alpha (Homo sapiens) (UniProt P35398); assay: Inverse agonist activity at NR1F1 (unknown origin) at 1 uM
T1 sequence (whole entry): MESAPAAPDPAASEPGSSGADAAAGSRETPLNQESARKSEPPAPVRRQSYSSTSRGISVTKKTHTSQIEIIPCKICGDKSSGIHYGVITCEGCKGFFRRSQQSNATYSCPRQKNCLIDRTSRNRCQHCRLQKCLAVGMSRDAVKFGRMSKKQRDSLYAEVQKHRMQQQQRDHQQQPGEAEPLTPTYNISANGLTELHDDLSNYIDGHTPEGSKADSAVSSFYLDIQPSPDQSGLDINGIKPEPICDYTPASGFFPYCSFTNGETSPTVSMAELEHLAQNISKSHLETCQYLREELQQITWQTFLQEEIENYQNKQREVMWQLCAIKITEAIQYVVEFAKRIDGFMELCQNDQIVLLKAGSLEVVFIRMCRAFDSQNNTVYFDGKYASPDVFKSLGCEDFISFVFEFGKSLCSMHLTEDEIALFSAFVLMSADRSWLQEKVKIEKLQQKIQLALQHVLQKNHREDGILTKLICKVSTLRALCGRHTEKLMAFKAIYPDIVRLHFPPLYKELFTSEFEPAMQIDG

Sequences of proteins named here, by UniProt entry; tags and fusion partners are left off. A change or cut given only in a name is not applied to a line headed by its entry.
UniProt P13631, whole entry: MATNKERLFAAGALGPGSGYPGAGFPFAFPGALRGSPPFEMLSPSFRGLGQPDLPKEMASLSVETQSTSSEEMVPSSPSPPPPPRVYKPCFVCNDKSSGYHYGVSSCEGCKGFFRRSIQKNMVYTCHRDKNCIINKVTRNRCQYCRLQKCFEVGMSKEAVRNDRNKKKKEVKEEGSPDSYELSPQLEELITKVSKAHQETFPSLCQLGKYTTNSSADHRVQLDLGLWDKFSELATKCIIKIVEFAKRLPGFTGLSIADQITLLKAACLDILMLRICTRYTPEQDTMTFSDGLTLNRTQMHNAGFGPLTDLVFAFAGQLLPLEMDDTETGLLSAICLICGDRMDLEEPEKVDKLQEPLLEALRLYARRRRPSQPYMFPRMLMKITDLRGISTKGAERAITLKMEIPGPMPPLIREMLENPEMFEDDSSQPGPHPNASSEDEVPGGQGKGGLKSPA
UniProt P55055, whole entry: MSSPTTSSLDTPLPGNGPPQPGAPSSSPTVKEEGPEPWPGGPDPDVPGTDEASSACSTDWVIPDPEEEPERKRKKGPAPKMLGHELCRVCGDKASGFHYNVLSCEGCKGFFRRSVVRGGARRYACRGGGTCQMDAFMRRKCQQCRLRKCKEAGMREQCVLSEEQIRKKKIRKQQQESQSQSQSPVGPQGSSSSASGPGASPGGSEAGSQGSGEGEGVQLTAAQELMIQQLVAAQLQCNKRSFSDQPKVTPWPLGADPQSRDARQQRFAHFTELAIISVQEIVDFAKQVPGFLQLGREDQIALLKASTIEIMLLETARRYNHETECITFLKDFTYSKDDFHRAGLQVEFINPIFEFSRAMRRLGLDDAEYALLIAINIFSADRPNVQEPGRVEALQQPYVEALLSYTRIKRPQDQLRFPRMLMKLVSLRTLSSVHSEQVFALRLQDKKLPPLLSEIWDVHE
UniProt Q13285, whole entry: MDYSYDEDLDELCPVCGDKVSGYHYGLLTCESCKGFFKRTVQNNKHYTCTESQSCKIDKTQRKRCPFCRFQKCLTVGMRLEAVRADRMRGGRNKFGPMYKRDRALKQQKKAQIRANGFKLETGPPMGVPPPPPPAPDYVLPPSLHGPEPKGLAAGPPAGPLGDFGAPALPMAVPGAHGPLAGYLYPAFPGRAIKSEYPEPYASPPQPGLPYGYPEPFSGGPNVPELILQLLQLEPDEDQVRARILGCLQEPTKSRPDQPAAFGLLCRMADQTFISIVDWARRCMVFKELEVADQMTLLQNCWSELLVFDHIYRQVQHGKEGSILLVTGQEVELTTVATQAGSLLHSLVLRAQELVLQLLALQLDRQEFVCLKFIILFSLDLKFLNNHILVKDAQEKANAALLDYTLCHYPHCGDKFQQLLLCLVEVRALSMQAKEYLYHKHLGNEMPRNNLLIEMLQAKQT
UniProt Q13133, whole entry: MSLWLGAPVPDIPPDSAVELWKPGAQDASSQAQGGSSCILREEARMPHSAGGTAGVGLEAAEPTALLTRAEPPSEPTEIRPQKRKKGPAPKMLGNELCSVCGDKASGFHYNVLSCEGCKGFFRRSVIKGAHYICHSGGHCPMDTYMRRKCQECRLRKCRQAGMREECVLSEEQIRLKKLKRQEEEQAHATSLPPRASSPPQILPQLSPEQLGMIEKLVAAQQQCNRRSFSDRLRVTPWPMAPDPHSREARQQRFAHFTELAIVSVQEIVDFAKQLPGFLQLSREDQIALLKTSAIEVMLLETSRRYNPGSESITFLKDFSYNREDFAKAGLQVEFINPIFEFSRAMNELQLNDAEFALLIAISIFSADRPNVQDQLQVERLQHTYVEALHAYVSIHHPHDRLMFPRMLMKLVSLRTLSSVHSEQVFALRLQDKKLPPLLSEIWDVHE
UniProt Q92570: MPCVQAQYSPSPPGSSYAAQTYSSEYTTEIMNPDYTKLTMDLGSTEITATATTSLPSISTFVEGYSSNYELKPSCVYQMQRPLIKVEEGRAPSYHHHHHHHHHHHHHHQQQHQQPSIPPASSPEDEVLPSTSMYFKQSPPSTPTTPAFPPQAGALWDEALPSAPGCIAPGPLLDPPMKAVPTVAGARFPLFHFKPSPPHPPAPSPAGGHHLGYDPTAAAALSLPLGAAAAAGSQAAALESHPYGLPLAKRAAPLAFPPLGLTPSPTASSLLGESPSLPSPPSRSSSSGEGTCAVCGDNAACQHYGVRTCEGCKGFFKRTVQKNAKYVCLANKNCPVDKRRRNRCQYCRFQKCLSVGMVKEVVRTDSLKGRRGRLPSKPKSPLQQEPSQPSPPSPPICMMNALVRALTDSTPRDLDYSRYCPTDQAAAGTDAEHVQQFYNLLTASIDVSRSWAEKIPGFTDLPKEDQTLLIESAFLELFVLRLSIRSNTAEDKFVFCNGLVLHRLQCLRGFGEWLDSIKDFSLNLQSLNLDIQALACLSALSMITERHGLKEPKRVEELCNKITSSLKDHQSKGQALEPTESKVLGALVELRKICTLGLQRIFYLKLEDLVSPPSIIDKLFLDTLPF

[5] = biological target: T2, Hepatocyte nuclear factor 4-alpha (Homo sapiens) (UniProt P41235); assay: Inverse agonist activity at NR2A1 (unknown origin) at 1 uM
T2 sequence (whole entry): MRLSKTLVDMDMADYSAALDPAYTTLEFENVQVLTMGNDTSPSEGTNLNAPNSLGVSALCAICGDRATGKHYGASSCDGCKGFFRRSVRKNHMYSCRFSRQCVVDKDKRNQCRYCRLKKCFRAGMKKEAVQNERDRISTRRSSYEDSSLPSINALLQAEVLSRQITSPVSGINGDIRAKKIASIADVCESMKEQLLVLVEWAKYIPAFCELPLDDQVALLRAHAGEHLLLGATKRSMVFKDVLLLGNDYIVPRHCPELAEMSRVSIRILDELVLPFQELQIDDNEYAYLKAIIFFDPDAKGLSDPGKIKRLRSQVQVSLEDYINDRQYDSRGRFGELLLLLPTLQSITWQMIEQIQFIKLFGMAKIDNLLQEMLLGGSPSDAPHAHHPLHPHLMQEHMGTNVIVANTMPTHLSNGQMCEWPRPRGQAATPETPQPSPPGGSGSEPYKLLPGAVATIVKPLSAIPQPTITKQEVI

[6] = biological target: T3, Nuclear receptor subfamily 2 group C member 2 (Homo sapiens) (UniProt P49116); assay: Inverse agonist activity at NR2C2 (unknown origin) at 1 uM
T3 sequence (whole entry): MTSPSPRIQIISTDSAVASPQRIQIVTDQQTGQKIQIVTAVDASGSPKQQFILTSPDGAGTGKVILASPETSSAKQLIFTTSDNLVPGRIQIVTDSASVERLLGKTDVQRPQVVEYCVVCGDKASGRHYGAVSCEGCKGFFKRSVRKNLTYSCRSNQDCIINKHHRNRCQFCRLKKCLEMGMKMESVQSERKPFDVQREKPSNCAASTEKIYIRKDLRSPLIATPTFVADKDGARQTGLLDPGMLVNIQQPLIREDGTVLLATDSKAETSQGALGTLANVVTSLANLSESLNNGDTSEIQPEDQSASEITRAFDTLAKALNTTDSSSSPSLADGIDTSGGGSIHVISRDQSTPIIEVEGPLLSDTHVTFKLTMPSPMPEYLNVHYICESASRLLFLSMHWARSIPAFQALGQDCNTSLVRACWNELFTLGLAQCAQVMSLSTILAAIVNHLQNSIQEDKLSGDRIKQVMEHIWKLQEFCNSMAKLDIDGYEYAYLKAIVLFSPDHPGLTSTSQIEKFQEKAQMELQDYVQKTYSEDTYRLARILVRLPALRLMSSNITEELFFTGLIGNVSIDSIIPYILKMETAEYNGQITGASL

[7] = biological target: Steroidogenic factor 1 (Homo sapiens) (UniProt Q13285); assay: Inverse agonist activity at NR5A1 (unknown origin) at 1 uM
[8] = biological target: T4, Thyroid hormone receptor alpha (Homo sapiens) (UniProt P10827); assay: Antagonist activity at NR1A1 (unknown origin) at 1 uM
T4 sequence (whole entry): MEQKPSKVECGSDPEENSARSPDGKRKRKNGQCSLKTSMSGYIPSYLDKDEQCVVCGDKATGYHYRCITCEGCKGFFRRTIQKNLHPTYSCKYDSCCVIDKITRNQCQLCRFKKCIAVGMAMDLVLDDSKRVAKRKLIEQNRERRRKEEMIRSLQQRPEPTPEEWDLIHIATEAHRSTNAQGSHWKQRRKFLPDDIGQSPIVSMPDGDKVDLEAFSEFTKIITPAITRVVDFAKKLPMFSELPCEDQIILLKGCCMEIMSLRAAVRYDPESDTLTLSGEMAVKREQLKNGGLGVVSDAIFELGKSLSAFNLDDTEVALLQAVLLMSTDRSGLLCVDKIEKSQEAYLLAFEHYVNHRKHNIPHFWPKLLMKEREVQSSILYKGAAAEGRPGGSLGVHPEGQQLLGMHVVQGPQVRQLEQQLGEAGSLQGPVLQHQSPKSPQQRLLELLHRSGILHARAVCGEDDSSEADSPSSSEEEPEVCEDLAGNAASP

[9] = biological target: Oxysterols receptor LXR-alpha (Homo sapiens) (UniProt Q13133); assay: Antagonist activity at NR1H3 (unknown origin) at 1 uM
[10] = biological target: T5, Vitamin D3 receptor (Homo sapiens) (UniProt P11473); assay: Antagonist activity at NR1I1 (unknown origin) at 1 uM
T5 sequence (whole entry): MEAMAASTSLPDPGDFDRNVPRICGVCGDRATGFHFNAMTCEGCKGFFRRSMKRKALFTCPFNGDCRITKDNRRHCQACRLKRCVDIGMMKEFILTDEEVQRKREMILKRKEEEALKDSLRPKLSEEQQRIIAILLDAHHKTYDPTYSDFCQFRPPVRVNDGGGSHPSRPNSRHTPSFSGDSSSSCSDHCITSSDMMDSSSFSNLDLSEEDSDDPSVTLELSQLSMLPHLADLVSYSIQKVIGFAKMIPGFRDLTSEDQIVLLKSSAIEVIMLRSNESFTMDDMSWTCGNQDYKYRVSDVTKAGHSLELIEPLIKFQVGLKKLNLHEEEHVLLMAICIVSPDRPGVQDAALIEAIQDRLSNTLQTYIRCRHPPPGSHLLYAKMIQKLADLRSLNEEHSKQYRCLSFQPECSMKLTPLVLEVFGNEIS

[11] = biological target: Nuclear receptor subfamily 4 group A member 3 (Homo sapiens) (UniProt Q92570); assay: Antagonist activity at NR4A3 (unknown origin) at 1 uM
[12] = biological target: T1, Nuclear receptor ROR-alpha (Homo sapiens); assay: Antagonist activity at NR1F1 (unknown origin) at 1 uM

Activity [1]: inactive
Activity [2]: inactive
Activity [3]: inactive
Activity [4]: inactive
Activity [5]: inactive
Activity [6]: inactive
Activity [7]: inactive
Activity [8]: inactive
Activity [9]: inactive
Activity [10]: inactive
Activity [11]: inactive
Activity [12]: inactive
SMILES: O=C(O)[C@@H]1C[C@H]1c1nc(-c2ccccc2)c(-c2cc(C(F)(F)F)cc(C(F)(F)F)c2)o1 (racemic)

— ChEMBL document CHEMBL5375987, “Structural Fusion of Natural and Synthetic Ligand Features Boosts RXR Agonist Potency” (J Med Chem, 2023)
